# Test results from PubChem BioAssay AID604 (The Scripps Research Institute Molecular Screening Center, 2007).
# The chains behind the UniProt entries cited, without tags or fusion partners.
# UniProt O75116, whole entry: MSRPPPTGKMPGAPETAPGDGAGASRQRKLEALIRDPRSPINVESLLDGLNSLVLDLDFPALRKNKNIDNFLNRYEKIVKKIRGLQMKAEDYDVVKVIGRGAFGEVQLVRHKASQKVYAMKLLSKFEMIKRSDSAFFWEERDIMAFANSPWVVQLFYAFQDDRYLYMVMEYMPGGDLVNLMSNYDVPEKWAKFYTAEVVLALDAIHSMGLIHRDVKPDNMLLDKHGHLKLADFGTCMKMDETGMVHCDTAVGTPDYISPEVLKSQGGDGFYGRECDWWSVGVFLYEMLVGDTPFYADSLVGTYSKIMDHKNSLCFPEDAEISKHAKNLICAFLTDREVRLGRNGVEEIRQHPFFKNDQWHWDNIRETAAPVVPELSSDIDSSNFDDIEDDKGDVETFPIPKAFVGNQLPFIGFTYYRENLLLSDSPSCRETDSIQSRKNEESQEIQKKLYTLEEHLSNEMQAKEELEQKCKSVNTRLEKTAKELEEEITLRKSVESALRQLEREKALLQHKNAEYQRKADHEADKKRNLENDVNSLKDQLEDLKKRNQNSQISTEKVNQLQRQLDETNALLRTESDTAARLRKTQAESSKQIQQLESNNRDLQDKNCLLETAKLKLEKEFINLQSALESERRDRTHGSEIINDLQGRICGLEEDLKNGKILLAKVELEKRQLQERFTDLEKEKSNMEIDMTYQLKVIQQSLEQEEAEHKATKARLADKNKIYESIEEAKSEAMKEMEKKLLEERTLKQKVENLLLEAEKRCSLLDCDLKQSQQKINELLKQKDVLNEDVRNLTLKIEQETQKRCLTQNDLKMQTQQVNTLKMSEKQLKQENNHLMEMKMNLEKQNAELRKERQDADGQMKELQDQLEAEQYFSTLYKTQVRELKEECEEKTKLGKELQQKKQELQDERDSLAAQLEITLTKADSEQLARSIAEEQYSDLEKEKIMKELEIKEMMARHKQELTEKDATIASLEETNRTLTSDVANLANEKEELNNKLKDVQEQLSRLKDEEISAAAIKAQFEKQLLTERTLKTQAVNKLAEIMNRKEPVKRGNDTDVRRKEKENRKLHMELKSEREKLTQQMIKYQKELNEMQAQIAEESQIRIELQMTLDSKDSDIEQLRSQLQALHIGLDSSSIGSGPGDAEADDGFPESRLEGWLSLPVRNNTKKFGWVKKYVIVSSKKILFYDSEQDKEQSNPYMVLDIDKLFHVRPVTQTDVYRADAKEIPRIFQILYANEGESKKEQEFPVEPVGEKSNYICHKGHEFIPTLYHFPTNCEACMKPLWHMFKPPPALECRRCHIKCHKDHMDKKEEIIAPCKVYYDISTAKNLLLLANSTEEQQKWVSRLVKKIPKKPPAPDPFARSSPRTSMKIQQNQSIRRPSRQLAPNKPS
# The entries are a selection whose mix differs from that of the whole data set. Some of these compounds have results that are not shown, active ones among them. The source made the active and inactive calls.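 The calls were made as follows: active = inhibition above the screen-wide mean inhibition plus 3 SD (cut at about 18% in these data); inactive = the rest.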
# Molecular target: Rho-associated protein kinase 2 (Homo sapiens) (UniProt O75116)
# Assay: ROCK2 enzymatic activity blockers – biochemical, high-throughput, luminescence, primary screen (AID 604);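 also: plate controls were DMSO wells for no effect and Y-27632 control wells after no-enzyme background subtraction for full effect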
# Conditions: purified ROCK2, Kinase-Glo ATP depletion luminescence; at 6 µM; stronger effect = higher value
row,SMILES,inhibition
1,O=C(OC1CN2CCC1CC2)C(CO)(c1ccccc1)c1ccccc1 (configuration not stated),inactive: 4.7%
2,CN(C)c1cccc(C(=O)NCC2(N(C)C)CCCCC2)c1,inactive: -2.9%
